Reference: patent US7470815B1, “Selective neuronal nitric oxide synthase inhibitors” (Northwestern University, priority 2006, dated 2008)

Assay: Stability in Hepes buffer (enzyme assay medium)
Details: Hepes buffer (pH 7.5), the medium for the enzyme assay

SMILES	stability in Hepes buffer
N/C(=N\CCC[C@H](N)CNc1ccc(N)cc1)N[N+](=O)[O-] [Compound 16, N-(4S)-{[4-Amino-5-(4-amino)phenylamino]-pentyl}-N′-nitroguanidine]	unstable
N=C(NCCC[C@H](N)CNc1cccc(N)c1)N[N+](=O)[O-] [Compound 15, Na-(4S)-{[4-Amino-5-(3-amino)phenylamino]pentyl}-N′-nitroguanidine]	unstable
